Target: human recombinant GABA A receptor containing the alpha2, beta2, and gamma3 subunits (Homo sapiens, UniProt P47869+Q99928)
Assay: Radioligand competition binding assay with [3H]Ro-15-1788 (Flumazenil);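 note: membranes from HEK cells expressing the receptor, incubated with radioligand to equilibrium, filter-bound radioactivity counted, Ki reported as geometric mean of replicate runs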

Amino acid sequences for entries named in this document (tags omitted). A change or cut given only in a name is not applied to a line headed by its entry.
UniProt P47869: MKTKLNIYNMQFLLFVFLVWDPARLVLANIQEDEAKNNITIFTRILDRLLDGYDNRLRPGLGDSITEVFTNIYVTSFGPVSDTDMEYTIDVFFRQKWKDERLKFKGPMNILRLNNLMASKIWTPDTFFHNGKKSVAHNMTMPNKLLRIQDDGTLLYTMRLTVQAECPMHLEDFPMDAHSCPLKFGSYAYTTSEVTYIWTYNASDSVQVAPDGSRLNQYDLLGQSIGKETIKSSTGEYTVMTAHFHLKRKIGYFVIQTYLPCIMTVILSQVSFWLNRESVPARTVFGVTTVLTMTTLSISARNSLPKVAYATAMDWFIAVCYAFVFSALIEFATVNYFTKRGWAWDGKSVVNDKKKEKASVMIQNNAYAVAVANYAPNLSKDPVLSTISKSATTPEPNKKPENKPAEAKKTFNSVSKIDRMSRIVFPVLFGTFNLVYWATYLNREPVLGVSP
UniProt Q99928: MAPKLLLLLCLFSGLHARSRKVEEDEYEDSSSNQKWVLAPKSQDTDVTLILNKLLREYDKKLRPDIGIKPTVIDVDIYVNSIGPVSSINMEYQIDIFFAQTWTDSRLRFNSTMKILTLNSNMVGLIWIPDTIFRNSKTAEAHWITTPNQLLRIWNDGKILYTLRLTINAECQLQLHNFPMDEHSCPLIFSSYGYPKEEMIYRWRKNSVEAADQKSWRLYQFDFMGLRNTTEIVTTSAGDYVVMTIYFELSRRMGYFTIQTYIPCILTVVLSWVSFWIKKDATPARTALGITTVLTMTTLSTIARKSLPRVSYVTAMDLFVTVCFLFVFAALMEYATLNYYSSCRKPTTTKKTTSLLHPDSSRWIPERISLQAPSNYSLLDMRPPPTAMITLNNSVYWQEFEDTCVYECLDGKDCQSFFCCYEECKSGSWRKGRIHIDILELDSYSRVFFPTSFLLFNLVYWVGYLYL

SMILES	Ki [nM]
CCn1cnc2c(-c3ccc(F)c(-c4ccc(S(=O)(=O)C(C)C)cc4F)c3)cnnc21	61.3
CCn1cnc2c(-c3ccc(F)c(-c4ccc(S(=O)(=O)CC)cc4C(F)F)c3)cnnc21 [Example 14, 4-(2′-(Difluoromethyl)-4′-(ethylsulfonyl)-6-fluoro-[1,1′-biphenyl]-3-yl)-7-ethyl-7H-imidazo[4,5-c]pyridazine]	35.4
CCn1cnc2c(-c3ccc(F)c(-c4ccc(S(=O)(=O)NC)cc4)c3)cnnc21 [Example 8, 5′-(7-Ethyl-7H-imidazo[4,5-c]pyridazin-4-yl)-2′-fluoro-N-methylbiphenyl-4-sulfonamide]	7.45
CCn1cnc2c(-c3ccc(O)c(-c4ccc(S(=O)(=O)CC)cc4OC)c3)cnnc21 [Example 48, 5-(7-Ethyl-7H-imidazo[4,5-c]pyridazin-4-yl)-4′-(ethylsulfonyl)-2′-methoxy-[1,1′-biphenyl]-2-ol]	92.2
CCn1cnc2c(-c3ccc(F)c(-c4ccc(S(N)(=O)=O)cc4)c3)cnnc21 [Example 3, 5′-(7-Ethyl-7H-imidazo[4,5-c]pyridazin-4-yl)-2′-fluorobiphenyl-4-sulfonamide]	5.08
